# In patent US4898975A, “Water soluble organic ammonium per halides” (Great Lakes Chemical Corporation, priority 1989, dated 1990):
# Like-named read-outs stand apart in the source and are kept apart here.
# Columns and labels:
# [1] = format: physicochemical; conditions: closed bottle, ambient, 16060 h
# [2] = format: physicochemical; conditions: closed bottle, 29200 h
substance,measurement,setting,value
Diethanolammonium Perbromide [Compound 23],Relative Change in % Br2,[1],10.9%
same,Relative Change in % Br2,[2],26.2%
